Patent publication US11767344B2, “Pharmaceutically acceptable salts of polypeptides and methods of inhibiting the interaction between psd-95 and n-methyl-d-aspartic acid receptor (nmdar)” (BIOCELLS (BEIJING) BIOTECH CO., LTD., priority 2017, dated 2023)

Assays:
[1] = Stability analysis of P5 salt powders (HPLC area normalization); details: powder
[2] = Stability analysis of P5 salt solutions (HPLC area normalization); details: solution

**Q.** For YGRKKRRQRRRYEKLLDTEI [P5-Ac], which relative stability order ([1]; high humidity) is on record?
**A.** The relative stability order was “trifluoroacetate>hydrochloride>acetate”.

**Q.** And the relative stability order ([1]; irradiation + ultraviolet)?
**A.** Its relative stability order is “trifluoroacetate>acetate>hydrochloride”.

**Q.** What about the relative stability order ([2]; high temperature) of the same sequence?
**A.** Its relative stability order is “acetate>hydrochloride”.

**Q.** And the relative stability order ([2]; irradiation)?
**A.** The relative stability order was “acetate>trifluoroacetate>hydrochloride”.

Ends that are not written are not given here.
